Measurements taken from US5763219.

Biological target: histone H1

| Substance | phosphorylation of histone H1 [fold] |
| --- | --- |
| cycEΔ9/cdk2 complex (from UniProt P24941) (enzyme) | 2 |
| cycEΔ148/cdk2 complex (from UniProt P24941) (enzyme) | 2 |
